Source: ChEMBL document CHEMBL3991601, “The target landscape of clinical kinase drugs” (Science, 2017)
Activity calls are given as the source filed them. Unless noted, no cut-off for these calls is given here.

The chains behind the UniProt entries cited, without tags or fusion partners. Where a name states a change or a piece, a line headed by the entry shows the natural chain unless it says otherwise.
UniProt P50613: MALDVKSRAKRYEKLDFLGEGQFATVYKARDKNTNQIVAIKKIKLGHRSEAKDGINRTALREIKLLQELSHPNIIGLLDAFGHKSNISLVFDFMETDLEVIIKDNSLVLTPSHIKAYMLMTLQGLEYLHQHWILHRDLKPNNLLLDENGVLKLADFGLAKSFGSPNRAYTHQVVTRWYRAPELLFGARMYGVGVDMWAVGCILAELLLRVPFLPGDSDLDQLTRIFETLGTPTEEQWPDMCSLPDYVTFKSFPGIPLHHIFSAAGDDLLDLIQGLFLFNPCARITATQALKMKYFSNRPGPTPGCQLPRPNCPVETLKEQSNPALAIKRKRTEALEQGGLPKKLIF
UniProt P50750, whole entry: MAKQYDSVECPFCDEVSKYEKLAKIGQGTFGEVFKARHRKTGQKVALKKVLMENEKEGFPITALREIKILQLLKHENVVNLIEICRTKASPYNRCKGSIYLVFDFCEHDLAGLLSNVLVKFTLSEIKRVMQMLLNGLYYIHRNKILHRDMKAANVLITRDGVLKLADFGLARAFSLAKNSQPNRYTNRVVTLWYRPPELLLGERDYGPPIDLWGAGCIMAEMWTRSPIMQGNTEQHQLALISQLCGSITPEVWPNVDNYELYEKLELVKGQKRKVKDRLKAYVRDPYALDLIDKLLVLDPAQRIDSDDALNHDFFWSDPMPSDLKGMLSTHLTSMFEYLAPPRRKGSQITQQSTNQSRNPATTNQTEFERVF
UniProt P36888, whole entry: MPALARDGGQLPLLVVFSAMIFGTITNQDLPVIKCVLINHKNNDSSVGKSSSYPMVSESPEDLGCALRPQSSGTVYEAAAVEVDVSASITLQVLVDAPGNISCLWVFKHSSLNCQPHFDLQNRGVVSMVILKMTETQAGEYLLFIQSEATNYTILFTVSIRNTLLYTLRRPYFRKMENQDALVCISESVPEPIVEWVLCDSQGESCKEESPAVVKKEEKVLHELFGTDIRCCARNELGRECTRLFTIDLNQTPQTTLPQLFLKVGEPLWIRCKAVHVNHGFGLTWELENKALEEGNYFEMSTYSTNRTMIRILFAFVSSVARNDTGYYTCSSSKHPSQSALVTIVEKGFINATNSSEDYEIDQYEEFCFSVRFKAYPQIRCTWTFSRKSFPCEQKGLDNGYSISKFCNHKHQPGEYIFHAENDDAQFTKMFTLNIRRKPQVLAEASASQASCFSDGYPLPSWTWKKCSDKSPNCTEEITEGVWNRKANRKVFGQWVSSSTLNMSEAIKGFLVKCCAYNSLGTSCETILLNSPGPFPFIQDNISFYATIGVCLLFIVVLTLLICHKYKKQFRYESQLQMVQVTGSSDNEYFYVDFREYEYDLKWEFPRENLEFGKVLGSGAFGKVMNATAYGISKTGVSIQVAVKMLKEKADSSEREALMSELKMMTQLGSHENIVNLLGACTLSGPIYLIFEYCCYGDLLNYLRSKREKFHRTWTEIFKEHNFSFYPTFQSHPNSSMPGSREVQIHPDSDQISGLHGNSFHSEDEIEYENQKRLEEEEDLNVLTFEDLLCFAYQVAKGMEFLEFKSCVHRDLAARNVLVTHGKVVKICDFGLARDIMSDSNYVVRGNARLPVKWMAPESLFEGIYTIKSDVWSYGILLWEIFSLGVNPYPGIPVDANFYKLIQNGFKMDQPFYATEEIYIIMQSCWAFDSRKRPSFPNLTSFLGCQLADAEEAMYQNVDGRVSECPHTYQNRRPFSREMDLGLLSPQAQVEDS
UniProt P05771, whole entry: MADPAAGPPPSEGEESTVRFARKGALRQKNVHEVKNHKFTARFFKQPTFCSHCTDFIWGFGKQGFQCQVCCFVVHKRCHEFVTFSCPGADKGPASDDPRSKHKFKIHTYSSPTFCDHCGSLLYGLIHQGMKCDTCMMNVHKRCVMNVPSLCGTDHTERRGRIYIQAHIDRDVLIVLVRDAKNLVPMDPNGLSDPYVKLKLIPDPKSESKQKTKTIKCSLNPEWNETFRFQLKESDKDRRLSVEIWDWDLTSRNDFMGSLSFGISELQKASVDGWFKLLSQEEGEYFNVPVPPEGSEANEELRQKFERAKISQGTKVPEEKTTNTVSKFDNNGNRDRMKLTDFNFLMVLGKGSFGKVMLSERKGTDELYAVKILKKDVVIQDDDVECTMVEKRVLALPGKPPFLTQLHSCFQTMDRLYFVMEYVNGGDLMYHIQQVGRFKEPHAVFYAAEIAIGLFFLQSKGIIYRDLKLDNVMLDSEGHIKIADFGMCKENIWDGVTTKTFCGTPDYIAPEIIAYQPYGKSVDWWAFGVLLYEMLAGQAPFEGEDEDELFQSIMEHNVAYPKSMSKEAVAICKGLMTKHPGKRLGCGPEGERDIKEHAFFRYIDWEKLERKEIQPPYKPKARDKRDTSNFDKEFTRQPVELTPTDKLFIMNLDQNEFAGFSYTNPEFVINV
UniProt P07947, whole entry: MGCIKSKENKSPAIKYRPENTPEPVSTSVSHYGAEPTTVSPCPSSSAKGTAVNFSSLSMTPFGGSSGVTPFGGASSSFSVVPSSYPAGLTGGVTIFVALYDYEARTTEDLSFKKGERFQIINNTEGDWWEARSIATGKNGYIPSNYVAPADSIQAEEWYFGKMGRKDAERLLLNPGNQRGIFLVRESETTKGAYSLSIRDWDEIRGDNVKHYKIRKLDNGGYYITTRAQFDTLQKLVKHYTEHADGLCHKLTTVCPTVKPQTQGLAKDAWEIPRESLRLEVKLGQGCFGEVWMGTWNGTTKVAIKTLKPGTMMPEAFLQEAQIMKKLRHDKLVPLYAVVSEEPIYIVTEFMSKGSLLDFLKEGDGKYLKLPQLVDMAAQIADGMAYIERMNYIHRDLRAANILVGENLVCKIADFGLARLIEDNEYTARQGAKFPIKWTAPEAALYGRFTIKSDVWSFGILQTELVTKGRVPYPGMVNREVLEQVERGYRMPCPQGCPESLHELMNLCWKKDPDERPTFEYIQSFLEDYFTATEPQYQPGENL

Experiments:
[1] = biological target: Cyclin-dependent kinase 7 (Homo sapiens, UniProt P50613)
[2] = biological target: Cyclin-dependent kinase 9 (Homo sapiens, UniProt P50750)
[3] = biological target: Receptor-type tyrosine-protein kinase FLT3 (Homo sapiens, UniProt P36888)
[4] = biological target: Protein kinase C beta type (Homo sapiens, UniProt P05771)
[5] = biological target: Tyrosine-protein kinase Yes (Homo sapiens, UniProt P07947)

Kd [2] | Compound | further results
 | CC1(COc2ccc3c(c2)ncn3-c2ccc3cccc(N4CCC(N)CC4)c3n2)COC1 [CRENOLANIB] | Kd [1]: inactive: > 30 µM
inactive: > 30 µM | COCC(=O)NC/C=C/c1ccc2ncnc(Nc3ccc(Oc4ccc(C)nc4)c(C)c3)c2c1 [CP-724714] | 
active: 0.001 µM | CN1C/C=C/CCOc2cccc(c2)-c2ccnc(n2)Nc2cccc(c2)C1 [ZOTIRACICLIB] | 
 | C1=C/COCc2cc(ccc2OCCN2CCCC2)Nc2nccc(n2)-c2cccc(c2)COC/1 [PACRITINIB] | Kd [3]: active: 0.228 µM
inactive: > 30 µM | Cn1cc(-c2cnn3c(N)c(Br)c([C@@H]4CCCNC4)nc23)cn1 [SCH-900776] | 
inactive: > 30 µM | COc1ccc2c(OCc3nnc4ccc(-c5ccccc5)nn34)ccnc2c1 [AMG-208] | 
inactive: > 30 µM | FC(F)(F)c1ccc(/C=C/c2nc(COc3ccc(CCCCn4ccnn4)cc3)co2)cc1 [MUBRITINIB] | 
 | CN1CCN(c2nc(C3=C(c4c[nH]c5ccccc45)C(=O)NC3=O)c3ccccc3n2)CC1 [SOTRASTAURIN] | Kd [4]: active: 0.024 µM
 | CCN1CCN(Cc2ccc(-c3cc4c(N[C@H](C)c5ccccc5)ncnc4[nH]3)cc2)CC1 [AEE-788] | Kd [5]: active: 17.2 µM
